Laboratory results taken from patent US8633245B2, “PAI-1 inhibitor” (Institute of Medicinal Molecular Design, Inc., priority 2008, dated 2014).

The chains behind the UniProt entries cited, without tags or fusion partners. Residues count along the entry.
UniProt P05121, 24-402: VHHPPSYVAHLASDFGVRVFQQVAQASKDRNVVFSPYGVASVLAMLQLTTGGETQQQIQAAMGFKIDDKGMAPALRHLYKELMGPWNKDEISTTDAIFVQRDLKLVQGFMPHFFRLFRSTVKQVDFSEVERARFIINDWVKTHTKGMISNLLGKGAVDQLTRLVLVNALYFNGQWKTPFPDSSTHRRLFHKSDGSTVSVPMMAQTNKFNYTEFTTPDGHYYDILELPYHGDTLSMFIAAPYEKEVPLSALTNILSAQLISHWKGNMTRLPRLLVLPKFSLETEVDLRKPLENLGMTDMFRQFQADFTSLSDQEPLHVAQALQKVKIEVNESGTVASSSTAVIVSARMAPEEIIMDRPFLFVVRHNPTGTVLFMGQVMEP

Legend:
Assay type in all cases: biochemical
recombinant human PAI-1 [1] = target: T1, recombinant human PAI-1 (Homo sapiens, UniProt P05121); assay: Test Example 1: human PAI-1 inhibitory activity (tPA fluorogenic substrate, pH 7.5 Tris buffer)
T1 construct: purchased Molecular Innovations, Inc
Procedure: 50 mM Tris, 150 mM NaCl, 10 μg/ml BSA, 0.01% Tween80 (SIGMA-ALDRICH Corporation)

recombinant rat PAI-1 = target: T2, recombinant rat PAI-1 (Rattus norvegicus, UniProt P20961); assay: Test Example 3: rat PAI-1 inhibitory activity (as Test Example 2 with rat PAI-1); conditions: calculated from the inhibition rates
T2 construct: purchased Molecular Innovations, Inc
T2 sequence (P20961 24-402): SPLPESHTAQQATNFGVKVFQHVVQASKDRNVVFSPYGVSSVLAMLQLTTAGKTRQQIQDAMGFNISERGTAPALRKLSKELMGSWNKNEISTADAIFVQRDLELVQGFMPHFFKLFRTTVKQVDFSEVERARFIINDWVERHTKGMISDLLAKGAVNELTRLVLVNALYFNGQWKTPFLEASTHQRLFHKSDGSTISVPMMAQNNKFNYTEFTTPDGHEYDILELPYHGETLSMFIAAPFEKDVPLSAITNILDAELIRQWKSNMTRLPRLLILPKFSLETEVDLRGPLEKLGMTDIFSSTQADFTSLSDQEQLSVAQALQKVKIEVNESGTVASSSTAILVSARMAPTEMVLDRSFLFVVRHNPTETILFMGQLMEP

recombinant human PAI-1 [2] = target: T1, recombinant human PAI-1; assay: Test Example 2: human PAI-1 inhibitory activity (tPA fluorogenic substrate, pH 7.4 HEPES buffer); conditions: calculated from the inhibition rates
Procedure: 0.1 M HEPES, 0.1 M NaCl. 1 mM EDTA. 0.1% Polyethylene glycol 8,000 (Hampton Research Corporation),
2 mM Dimethyldecylphoshine oxide [Apo-10] (Fluka Corporation)

SMILES | Inhibition Rate of PAI-1 Activity (%) (recombinant human PAI-1 [1]; Compound Concentration 10 μM) | Inhibition Rate of PAI-1 Activity (%) (recombinant human PAI-1 [1]; Compound Concentration 25 μM) | Inhibition Rate of PAI-1 Activity (%) (recombinant human PAI-1 [1]; Compound Concentration 5 μM) | IC50 (recombinant rat PAI-1) [nM] | IC50 (recombinant human PAI-1 [2]) [nM]
O=C(O)/C=C/c1cc(-c2ccccc2)ccc1OCc1ccccc1 [Compound 45] | 15 | 31 |  |  | 
Cc1ccc(-c2ccc(OCc3ccc(C(C)(C)C)cc3)c(CCC(=O)O)c2)cc1 [Compound 42] | 59 | 97 | 27 |  | 
O=C(O)C=Cc1cc(-c2ccc(OC(F)(F)F)cc2)ccc1OCc1ccc(Cl)cc1 [Compound 18] | 65 | 92 | 36 |  | 
CC(C)(C)c1ccc(COc2ccc(-c3ccc(Cl)cc3)cc2CCC(=O)O)cc1 [Compound 50] | 56 | 96 | 23 |  | 
Cc1ccc(-c2ccc(OCc3ccc(C(C)(C)C)cc3)c(/C=C/C(=O)O)c2)cc1 [Compound 41] | 56 | 91 | 25 |  | 
CCCCc1ccc(COc2ccc(-c3ccc(OC(F)(F)F)cc3)cc2CCC(=O)O)cc1 [Compound 30] |  |  |  | 3310 | 1410
O=C(O)C=Cc1cc(-c2ccccc2[N+](=O)[O-])ccc1OCc1ccccc1 [Compound 7] | 21 |  | 14 |  | 
O=C(O)CCc1cc(-c2ccc(OC(F)(F)F)cc2)ccc1OCc1ccc(Cl)cc1 [Compound 19] | 13 | 77 |  |  | 
